In ChEMBL document CHEMBL1275563, “Genetic characterization of Vga ABC proteins conferring reduced susceptibility to pleuromutilins in Staphylococcus aureus” (2008):

Key:
Staphylococcus aureus [1] = details: RN4220
Staphylococcus aureus [2] = details: RN4220; remark: listed apart in the source
Staphylococcus aureus [3] = details: ATCC 29213

Measured: MIC

GENTAMICIN
0.5 µg/mL: all assays above
